Laboratory results: ChEMBL document CHEMBL1275455, “Resistance and virulence of Pseudomonas aeruginosa clinical strains overproducing the MexCD-OprJ efflux pump” (2008)

Key:
[1] = test system: Pseudomonas aeruginosa; conditions: 2439
[2] = test system: Pseudomonas aeruginosa; conditions: 2126

With GENTAMICIN the MIC [1] was 0.5 µg/mL and the MIC [2] was 0.5 µg/mL.
